Molecular target: cynomolgus LAG3-Fc (accession # NC 022282.1) (cynomolgus monkey)
Assay: ELISA, plate-coated cynomolgus LAG3-Fc

EC50 | Binder
1.6 nM | SRP1496-A04 (antibody, V domains shown) VH: EVQLVESGGGLVQPGGSLRLSCAASGFNINDTYIHWVRQAPGKGLEWVGIIDPYDGATDYADSVKGRFTISADTSKNTAYLQMNSLRAEDTAVYYCAREIFGFYWNPFDYWGQGTLVTVSS VL: DIQMTQSPSSLSASVGDRVTITCRASQDVNTAVAWYQQKPGKAPKLLIYSASFLYSGVPSRFSGSRSGTDFTLTISSLQPEDFATYYCQQHYTTPPTFGQGTKVEIK
4.2 nM | SRP1496-A03 (antibody, V domains shown) VH: EVQLVESGGGLVQPGGSLRLSCAASGFNINDTYIHWVRQAPGKGLEWVGIIDPYDGATDYADSVKGRFTISADTSKNTAYLQMNSLRAEDTAVYYCAREIFGFYWNPFDYWGQGTLVTVSS VL: DIQMTQSPSSLSASVGDRVTITCRASQDVNTAVAWYQQKPGKAPKLLIYSASFLYSGVPSRFSGSRSGTDFTLTISSLQPEDFATYYCQQHYTTPPTFGQGTKVEIK
2.6 nM | SRP1496-B08 (antibody, V domains shown) VH: EVQLVESGGGLVQPGGSLRLSCAASGFNINDTYIHWVRQAPGKGLEWVGIIDPYDGATDYADSVKGRFTISADTSKNTAYLQMNSLRAEDTAVYYCAREIFGFYWNPFDYWGQGTLVTVSS VL: DIQMTQSPSSLSASVGDRVTITCRASQDVNTAVAWYQQKPGKAPKLLIYSASFLYSGVPSRFSGSRSGTDFTLTISSLQPEDFATYYCQQHYTTPPTFGQGTKVEIK
